The list shows a part of the results, in another mix than the full data. Inconclusive results are not listed. The source made the active and inactive calls. Calls come from the whole dose curve; as a rule, active = well fitted cell-killing curve with a large enough effect; inconclusive = small, poorly fitted or top-dose-only effect; inactive = flat fitted curve, though single readings scatter.
Assay: Compound cytotoxicity measured by an ATP content assay as a counter-screen for lead compounds in human iPSC derived neural progenitor cells (hNPCs)
Details: human iPSC-derived NPC viability, ATP luminescence; at 46.1 µM (top of the series)
Description: National Center for Advancing Translational Sciences [NCATS] Johns Hopkins University School of Medicine Florida State University Assay Overview: Many compounds can cause cytotoxicity at high compound concentrations. […] The compound cytotoxicity may also cause side effects or toxicity in human. Thus, the compound cytotoxicity needs to be measured in each cell type and each compound incubation time - same as these in the compound screening assay. The compound cytotoxicity can be measured by cell viability assays such as the ATP content assay. We use an ATP content assay kit for cell viability measurement. It measures ATP content (level) in human iPSC derived neural progenitor cells (hNPCs) using a luminescence readout that is proportional to viable cell numbers. Decrease in the luminescence signal after the compound treatment indicates reduced cell viability and cell death caused by compound treatment.
Assay Protocol Summary: The medium for hNPCs consists of DMEM/F12, N2 supplement (ThermoFisher, Cat.# 17502048), NEAA (ThermoFisher, Cat. # 11140050), 2 ug/ml heparin, 2 uM cyclopamine, and B27 (ThermoFisher, Cat. # 17504044). The ATP content assay kit (PerkinElmer, Cat.# 6016731) was used to determine cell viability. […] After incubation at room temperature for 10 minutes, the luminescence intensity in assay plates was measured using a ViewLux plate reader (PerkinElmer). […]

SMILES	activity, negative = cytotoxicity
C/C1=C2N=C(/C=C3N=C(/C(C)=C4\[N-][C@@](C)([C@@H]5N=C1[C@](C)(CCC(=O)NC[C@@H](C)OP(=O)([O-])O[C@H]1[C@@H](O)[C@@H](n6cnc7cc(C)c(C)cc76)O[C@@H]1CO)[C@H]5CC(N)=O)[C@@](C)(CC(N)=O)[C@@H]4CCC(N)=O)[C@@](C)(CC(N)=O)[C@@H]\3CCC(N)=O)C(C)(C)[C@@H]/2CCC(N)=O.[C-]#N.[Co+3]	inactive: -14.3%
CCOP(=O)(CC)Oc1ccc([N+](=O)[O-])cc1 (configuration not stated)	inactive: 4.11%
